Reference: PubChem BioAssay AID1576 (EPA DSSTox, 2009)
Active and inactive are the calls of the source.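 Rule for the calls: active = chemicals shown by follow-up kinetic tests to compete for rat estrogen receptor sites, with a measured inhibition constant; inconclusive = some binding seen but constant unmeasurable owing to poor solubility; inactive = no binding up to top dose, or binding unconfirmed.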

By UniProt entry, the sequences of proteins in these tests, tags left out.
UniProt P06211, whole entry, looked up: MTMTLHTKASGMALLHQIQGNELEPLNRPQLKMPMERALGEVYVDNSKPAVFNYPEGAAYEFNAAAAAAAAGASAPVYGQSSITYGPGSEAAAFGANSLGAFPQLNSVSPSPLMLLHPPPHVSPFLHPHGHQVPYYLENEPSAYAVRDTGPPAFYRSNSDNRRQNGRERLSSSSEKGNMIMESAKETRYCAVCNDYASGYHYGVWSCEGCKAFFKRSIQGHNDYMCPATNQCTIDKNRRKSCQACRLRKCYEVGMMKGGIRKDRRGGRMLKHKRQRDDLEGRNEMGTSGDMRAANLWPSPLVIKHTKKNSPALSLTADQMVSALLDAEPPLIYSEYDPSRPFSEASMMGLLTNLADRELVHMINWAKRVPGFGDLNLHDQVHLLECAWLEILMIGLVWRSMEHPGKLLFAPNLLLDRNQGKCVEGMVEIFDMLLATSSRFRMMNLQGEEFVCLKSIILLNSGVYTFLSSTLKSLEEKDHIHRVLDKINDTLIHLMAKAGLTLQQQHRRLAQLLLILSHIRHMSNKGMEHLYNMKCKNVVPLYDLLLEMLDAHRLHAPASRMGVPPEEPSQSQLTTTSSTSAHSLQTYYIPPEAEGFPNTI

Target: Estrogen receptor (Rattus norvegicus) (UniProt P06211)
Test: DSSTox (KIERBL) EPA Estrogen Receptor Ki Binding Study (Laws et al.) Database
Conditions: Rat uterine cytosol ER, 3H-estradiol competitive binding
Description: This study was conducted by EPA researchers to evaluate the validity of the rat uterine cytosolic (RUC) estrogen receptor (ER) competitive binding assay for use in the Endocrine Disruption Screening Program (EDSP). The assay measures the ability of radiolabeled 17-beta-estradiol (3H-E2) to bind with RUC ER in the presence of increasing concentrations of a test chemical. The goal is to employ this in vitro assay as a 1st tier screening tool for assessing the potential of structurally diverse environmental chemicals to bind to the ER, as well as to support research efforts to develop computational models to predict ER binding. A distinguishing feature of the present study was the use of secondary experimental analysis of binding curves and determination of Ki values to confirm that measured IC50 values corresponded to true positive results. The study concluded that a number of experimental conditions can confound interpretation of IC50 values obtained from the RUC ER-binding assay data and lead to false positive results. In particular, some chemical treatments likely alter the stability of the assay by changing the buffer pH, denaturing ER, or disrupting the ER binding kinetics. […] The chemicals used in this study were selected as part of a validation test for two Quantitative Structure-Activity Relationship (QSAR) models designed to predict ER binding [Fed. Reg. 67(250), 79618, Dec. 30, 2002]. Several hundred chemicals were initially screened, including approximately 100 chemicals selected from among the High Production Volume (HPV) chemicals included in EPA's Toxic Substances Control Act (TSCA) inventory that were predicted to be positive for ER binding, with the rest selected at random from the TSCA inventory. […] These chemicals were further evaluated in an ER competitive binding assay with secondary analysis to confirm true competitive inhibition and to determine an experimental Ki [U.S. EPA Contract 3D-5967-NTEX]. […]

| SMILES | outcome |
| --- | --- |
| ClP(c1ccccc1)c1ccccc1 | inactive; none |
| COP(=S)(Cl)OC | inactive; none |
| CCOC(=O)Cl | inactive; none |
